# Experimental data reported in patent US20260384421A1, “NOVEL COMPOUNDS THAT CAN BE USED AS THERAPEUTIC AGENTS” (published 2026).
# Key:
# MDA-MB-231 cells = experiment: alamarBlue proliferation assay with MDA-MB-231 cells (glucose-free Leibovitz's L-15 medium)
# HCT-116 cells = experiment: alamarBlue proliferation assay with HCT-116 cells; conditions: read-out: Activity on HCT-116: IC50, McCoy's 5A medium, 10% FBS
# NB-4 cells = experiment: alamarBlue proliferation assay with NB-4 cells; conditions: read-out: Activity on NB-4: IC50, RPMI 1640 medium, 10% FBS
# LL/2 cells = experiment: alamarBlue proliferation assay with LL/2 cells; conditions: read-out: Activity on LL/2: IC50; LL/2 murine Lewis lung carcinoma cells, DMEM medium, 10% FBS
# SW-1353 cells = experiment: alamarBlue proliferation assay with SW-1353 cells (glucose-free L-15 medium); conditions: read-out: Activity on SW-1353: IC50, Leibovitz's L-15 medium, 10% FBS, 0% CO2
# BHY cells = experiment: alamarBlue proliferation assay with BHY cells; conditions: read-out: Activity on BHY: IC50, DMEM medium, 10% FBS
# HPEKp cells = experiment: proliferation assay with human epidermal keratinocyte progenitors (HPEKp), selectivity versus MDA-MB-231; conditions: read-out: Activity (HPEK): antiproliferative activity on HPEK cells, IC50 category; HPEK cells cultivated in CnT-Prime medium
# TANQUE cells = experiment: alamarBlue proliferation assay with TANQUE cells; conditions: read-out: Activity on TANOUE: IC50, RPMI 1640 medium, 10% FBS
# A-549 cells = experiment: alamarBlue proliferation assay with A-549 cells; conditions: read-out: Activity on A-549: IC50, DMEM medium, 10% FBS
# [1] = read-out: Activity (MDA): antiproliferative activity on MDA-MB-231 cells, IC50 category, MDA-MB-231 cells cultivated in glucose-free Leibovitz's L-15 medium
# [2] = read-out: Activity on MDA-MB-231 (IC50), glucose-free Leibovitz's L-15, 10% FBS, day 5, alamarBlue
IC50 (MDA-MB-231 cells; [1]),IC50 (MDA-MB-231 cells; [2]),IC50 (HCT-116 cells),IC50 (SW-1353 cells),IC50 (HPEKp cells),IC50 (A-549 cells),Structure (SMILES),IC50 (NB-4 cells),IC50 (LL/2 cells),IC50 (BHY cells),IC50 (TANQUE cells)
< 1000 nM,≤ 200 nM,≤ 200 nM,≤ 200 nM,< 5000 nM,≤ 200 nM,O=C(c1ccc(Oc2ccc(C3CCC4(CC3)OCCO4)cc2CO)cc1)N1CCN(Cc2ccc(C(F)(F)F)nc2)CC1,≤ 200 nM,≤ 200 nM,≤ 200 nM,≤ 200 nM
< 1000 nM,≤ 200 nM,≤ 200 nM,≤ 200 nM,< 10000 nM,≤ 200 nM,CN(C)S(=O)(=O)c1ccc(CN2CCN(C(=O)c3ccc(Oc4ccc(C5CCC6(CC5)OCCO6)cc4CO)cc3)CC2)cc1,≤ 200 nM,≤ 200 nM,≤ 200 nM,≤ 200 nM
< 1000 nM,≤ 200 nM,≤ 1000 nM,≤ 200 nM,< 5000 nM,≤ 200 nM,O=C(c1ccc(Oc2ccc(C3CCC4(CC3)OCCO4)cc2CO)cc1)N1CCN(Cc2ccccc2Cl)CC1,≤ 1000 nM,≤ 5000 nM,≤ 1000 nM,≤ 1000 nM

# Where two headings read alike, the source gives them in different places.
